The target of this assay is HCV NS5B (Hepatitis C virus genotype 1b (strain HC-J4), UniProt O92972). In kind it is biochemical. The conditions noted are these: 100 nM enzyme, [3H]GTP incorporation, 2 h at 25° C.; read-out: IC50 (μM) Enzymatic assay. Here is the method: The cDNA encoding NS5B amino acid 1-570 (HC-J4, genotype 1b, pCV-J4L6S, genebank accession number AF054247) was subcloned into the Nhe I and Xho I restriction sites of pET-21b. Expression of the subsequent His-tagged C-terminal 21 amino acid deleted NS5B was performed as follows:
The NS5B expression construct was transformed into E. coli BL21(DE3) (Novagen, Madison, Wis.). Five milliliters of LB-medium supplemented with ampicillin (50 μg/mL) was inoculated with one colony. When the pre-culture reached an optical density of 0.6 measured at 600 nm, it was transferred to fresh LB-medium supplemented with ampicillin, at a ratio of 1:200. Cells were grown to an optical density at 600 nm of 0.6, after which the expression cultures were shifted to a growth temperature of 20° C. following induction with isopropyl-1-thio-β-D-galactopyranoside and MgCl2 at a final concentration of 0.4 mM and 10 μM, respectively. […]
Clarified cell lysate was thawed and subsequently loaded onto a 5 mL pre-packed HisTrap FF column equilibrated with 25 mM HEPES, pH 7.5, 500 mM NaCl, 10% glycerol and 5 mM DTT. […] Protein purity was assessed on Nu-PAGE pre-cast gels (Invitrogen, Carlsbad, Calif.). Purified NS5B samples were concentrated using Centri-Prep concentrators (Millipore, Billerica, Mass., USA) and protein concentrations were determined by Bradford assay (Pierce, Rockford, Ill., USA). […]

Chains of the proteins cited; added tags and fusions are not shown. Residues count along the entry.
UniProt O92972, 2420-3010 limits assumed: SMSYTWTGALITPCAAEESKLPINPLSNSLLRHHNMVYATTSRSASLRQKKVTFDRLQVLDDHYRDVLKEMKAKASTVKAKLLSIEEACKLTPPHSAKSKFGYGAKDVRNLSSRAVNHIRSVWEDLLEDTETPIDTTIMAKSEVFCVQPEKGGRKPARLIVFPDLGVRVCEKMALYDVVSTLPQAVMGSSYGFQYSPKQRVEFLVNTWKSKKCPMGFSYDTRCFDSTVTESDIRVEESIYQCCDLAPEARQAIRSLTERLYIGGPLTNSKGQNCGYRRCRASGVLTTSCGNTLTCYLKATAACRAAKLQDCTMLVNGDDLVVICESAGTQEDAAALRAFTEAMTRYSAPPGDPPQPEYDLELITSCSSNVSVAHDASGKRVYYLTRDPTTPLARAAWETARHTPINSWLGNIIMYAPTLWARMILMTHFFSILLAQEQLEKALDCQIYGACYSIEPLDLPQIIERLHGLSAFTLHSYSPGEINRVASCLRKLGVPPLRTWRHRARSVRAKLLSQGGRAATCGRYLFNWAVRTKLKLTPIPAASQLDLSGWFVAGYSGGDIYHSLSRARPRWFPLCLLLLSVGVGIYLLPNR

For the compound “17-Cyclohexyl-18-furan-3-yl-9-methyl-10,10-dioxo-10λ^6-thia-1,4,9,11-tetraaza-tricyclo[11.5.2.016,19]icosa-13(20),14,16(19),17-tetraene-3,12-dione [Cpd 28]”, the half-inhibitory concentration (IC50) was found to be 0.11 µM.

In the case of `CN1CCCCCNC(=O)Cn2c(-c3ccoc3)c(C3CCCCC3)c3ccc(cc32)C(=O)NS1(=O)=O` [Cpd 30, 18-Cyclohexyl-19-furan-3-yl-10-methyl-11,11-dioxo-11λ^6-thia-1,4,10,12-tetraaza-tricyclo[12.5.2.017,20]henicosa-14(21),15,17(20),18-tetraene-3,13-dione], the IC50 amounted to 0.11 µM.

As a reminder, the IC50 is the concentration that inhibits the measured activity by half.
